Key:
Homo sapiens [1] = organism: Homo sapiens; experiment: Selectivity index, ratio of IC50 for inhibition of recombinant human full length His-tagged p38gamma expressed in baculovirus expression system to IC50 for inhibition of human recombinant full length GST-tagged p38alpha expressed in Escherichia coli
Homo sapiens [2] = organism: Homo sapiens; experiment: Selectivity index, ratio of IC50 for inhibition of recombinant human full length His-tagged p38delta expressed in baculovirus expression system to IC50 for inhibition of human recombinant full length GST-tagged p38alpha expressed in Escherichia coli

Ratio IC50 (Homo sapiens [1]): > 800
Ratio IC50 (Homo sapiens [2]): > 25000
Structure (SMILES): C[C@H]1CCCCN1c1nnc2ccc(O[C@@H]3CC[C@H](NC(=O)Nc4cc(C(C)(C)C)nn4-c4cnn(CCN(C)C)c4)c4ccccc43)cn12
